Laboratory results as given in US4647687A, “Halogenated sulphides, process for their preparation and their use in microbicidal agents” (Bayer Aktiengesellschaft, priority 1983, dated 1987).
In brackets after ≈: the same amount, converted by molar mass.

Legend:
[1] = system: mixed culture of green algae, blue algae, brown algae and diatoms; test: Algae-destroying concentration in Allen's nutrient solution; conditions: decolorization of nutrient solution after 2 weeks' algae growth
Polyporus versicolor = test: MIC against fungi, beerwort/peptone agar; conditions: 28° C., 60 to 70% relative humidity, 2 weeks
Chaetomium globosum = test: MIC against fungi, beerwort/peptone agar; conditions: 28° C., 60 to 70% relative humidity, 2 weeks
Aureobasidium pullulans = test: MIC against fungi, beerwort/peptone agar; conditions: 28° C., 60 to 70% relative humidity, 2 weeks
Lentinus tigrinus = test: MIC against fungi, beerwort/peptone agar; conditions: 28° C., 60 to 70% relative humidity, 2 weeks
Trichoderma viride = test: MIC against fungi, beerwort/peptone agar; conditions: 28° C., 60 to 70% relative humidity, 2 weeks
Coniophora puteana = test: MIC against fungi, beerwort/peptone agar; conditions: 28° C., 60 to 70% relative humidity, 2 weeks
slime organisms = test: Action against slime organisms (MIC in Allen's nutrient solution); type: cell-based; conditions: about 10^6 germs/ml, 3 weeks at room temperature

## N#CC=C(Cl)SCC(Cl)(Cl)C#N
[1]
  Destroying concentration (algae-destroying): 25 mg/L
Polyporus versicolor
  MIC: 10 µg/mL (≈ 41.4 µM)
Chaetomium globosum
  MIC: 15 µg/mL (≈ 62.1 µM)
Aureobasidium pullulans
  MIC: 10 µg/mL (≈ 41.4 µM)
Lentinus tigrinus
  MIC: 5 µg/mL (≈ 20.7 µM)
Trichoderma viride
  MIC: 100 µg/mL (≈ 414 µM)
Coniophora puteana
  MIC: 1 µg/mL (≈ 4.14 µM)
Slime organisms
  MIC: 0.35 µg/mL (≈ 1.45 µM)

## N#CC(Cl)=C(Cl)SCC(Cl)(Cl)C#N
[1]
  Destroying concentration (algae-destroying): 25 mg/L
Polyporus versicolor
  MIC: 5 µg/mL (≈ 18.1 µM)
Chaetomium globosum
  MIC: 10 µg/mL (≈ 36.2 µM)
Aureobasidium pullulans
  MIC: 5 µg/mL (≈ 18.1 µM)
Lentinus tigrinus
  MIC: 2 µg/mL (≈ 7.25 µM)
Trichoderma viride
  MIC: 50 µg/mL (≈ 181 µM)
Coniophora puteana
  MIC: 0.5 µg/mL (≈ 1.81 µM)
Slime organisms
  MIC: 0.35 µg/mL (≈ 1.27 µM)
